This is a selection; strong and weak results do not stand in their true shares. Activity calls are given as the source filed them. Cut-off read from the data, not from the text of the source: active = activation above about 22%; inactive = the rest.
Molecular target: Peroxisome proliferator-activated receptor gamma (Homo sapiens) (UniProt P37231)
Experiment: agonists of PPARg-SRC-2 recruitment, primary screen, biochemical, HTS (AID 1032);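 note: 0% = vehicle and 100% = reference agonist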
Details: PPARgamma LBD-SRC-2 recruitment, at 8 µM, stronger effect = higher value

Chains of the proteins cited; added tags and fusions are not shown. Lines headed by an entry give the natural chain unless they say otherwise; changes in a name come on top.
UniProt P37231: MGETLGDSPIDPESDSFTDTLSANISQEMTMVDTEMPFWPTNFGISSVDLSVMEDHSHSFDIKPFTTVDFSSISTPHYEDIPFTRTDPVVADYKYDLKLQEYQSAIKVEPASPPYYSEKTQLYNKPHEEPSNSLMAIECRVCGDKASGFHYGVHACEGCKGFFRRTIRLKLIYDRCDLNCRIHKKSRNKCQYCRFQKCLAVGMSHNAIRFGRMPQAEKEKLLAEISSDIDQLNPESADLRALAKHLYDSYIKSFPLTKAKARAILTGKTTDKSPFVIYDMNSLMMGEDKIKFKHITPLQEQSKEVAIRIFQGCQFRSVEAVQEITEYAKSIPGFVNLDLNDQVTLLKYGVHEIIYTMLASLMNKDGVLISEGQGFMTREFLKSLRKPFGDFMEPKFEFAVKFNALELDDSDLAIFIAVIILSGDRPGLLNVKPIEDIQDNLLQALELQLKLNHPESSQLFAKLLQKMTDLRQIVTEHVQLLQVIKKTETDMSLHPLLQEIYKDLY

Row | Structure (SMILES) | activation
1 | CN(C)c1ccc2nc3ccc(=[N+](C)C)cc-3sc2c1 | active: 474%

From PubChem BioAssay AID1032 (The Scripps Research Institute Molecular Screening Center, 2008)
